Laboratory results: ChEMBL document CHEMBL3885861, “Open TG-GATES”

Organism: Rattus norvegicus
Assay: Open TG-GATES - Regimen: Single
Type: toxicity, organism-based, Sprague-Dawley
Design: regimen Single, gender Male, age 6 weeks
Details: in vivo, po, route gavage; for APTT / Fbg / MCH / MCV / Mono / Neu / PT / Plat / RBC / Hb: tissue Blood; for AST / BUN / Ca / Cl / LDH / PL / TC: tissue Plasma; for LIVER: tissue Liver
[1] = 0 mg/kg, 3 h, dose level Control
[2] = 0 mg/kg, 6 h, dose level Control
[3] = 0 mg/kg, 9 h, dose level Control
[4] = 0 mg/kg, 24 h, dose level Control
[5] = 10 mg/kg, 3 h, dose level Middle
[6] = 10 mg/kg, 6 h, dose level Middle
[7] = 10 mg/kg, 9 h, dose level Middle
[8] = 10 mg/kg, 24 h, dose level Middle
[9] = 30 mg/kg, 24 h, dose level High

Which results are given for `CNCCC(Oc1ccc(C(F)(F)F)cc1)c1ccccc1.Cl` (centres undefined) [FLUOXETINE HYDROCHLORIDE]?
APTT [1]: 15.3 s; Fbg [1]: 253.8 mg/dL; MCH [1]: 21.1 pg; MCV [1]: 65.7 fL; Mono [1]: 9.2%; Neu [1]: 17.4%; PT [1]: 12.3 s; Plat [1]: 121.8 x10_4/uL; RBC [1]: 626.6 x10_4/ul; AST [1]: 69.8 IU/L; BUN [1]: 11.6 mg/dL; Ca [1]: 11.4 mg/dL; Cl [1]: 104.9 meq/L; LDH [1]: 149.8 IU/L; PL [1]: 147.4 mg/dL; APTT [2]: 16 s; Fbg [2]: 232.8 mg/dL; MCH [2]: 21.5 pg; Mono [2]: 10%; Neu [2]: 17.2%; PT [2]: 12.3 s; Plat [2]: 116 x10_4/uL; RBC [2]: 614.2 x10_4/ul; AST [2]: 68 IU/L; Ca [2]: 10.9 mg/dL; Cl [2]: 107.2 meq/L; TC [2]: 76.6 mg/dL; APTT [3]: 16 s; Hb [3]: 13.1 g/dL; MCH [3]: 21.7 pg; MCV [3]: 66.8 fL; Mono [3]: 9.2%; Neu [3]: 23.6%; PT [3]: 12.6 s; Plat [3]: 127.2 x10_4/uL; RBC [3]: 602.6 x10_4/ul; AST [3]: 63 IU/L; BUN [3]: 11.6 mg/dL; Ca [3]: 10.4 mg/dL; Cl [3]: 106.1 meq/L; TC [3]: 79.4 mg/dL; APTT [4]: 15.5 s; Fbg [4]: 238 mg/dL; Hb [4]: 13 g/dL; MCH [4]: 21.7 pg; Mono [4]: 7.8%; Neu [4]: 14.4%; PT [4]: 11.7 s; Plat [4]: 122.2 x10_4/uL; LIVER [4]: 12.1 g; AST [4]: 61.6 IU/L; BUN [4]: 17.4 mg/dL; Ca [4]: 11 mg/dL; Cl [4]: 104.3 meq/L; LDH [4]: 108.6 IU/L; PL [4]: 165.2 mg/dL; TC [4]: 87.8 mg/dL; APTT (3 mg/kg, 3 h, dose level Low): 15 s; Fbg (3 mg/kg, 3 h, dose level Low): 247 mg/dL; Hb (3 mg/kg, 3 h, dose level Low): 13.4 g/dL; MCH (3 mg/kg, 3 h, dose level Low): 21.4 pg; MCV (3 mg/kg, 3 h, dose level Low): 66.4 fL; Mono (3 mg/kg, 3 h, dose level Low): 7.2%; Neu (3 mg/kg, 3 h, dose level Low): 15.2%; PT (3 mg/kg, 3 h, dose level Low): 12.1 s; Plat (3 mg/kg, 3 h, dose level Low): 116.4 x10_4/uL; RBC (3 mg/kg, 3 h, dose level Low): 630 x10_4/ul; Ca (3 mg/kg, 3 h, dose level Low): 11.4 mg/dL; Cl (3 mg/kg, 3 h, dose level Low): 104.9 meq/L; LDH (3 mg/kg, 3 h, dose level Low): 155.4 IU/L; PL (3 mg/kg, 3 h, dose level Low): 154.6 mg/dL; TC (3 mg/kg, 3 h, dose level Low): 88.2 mg/dL; APTT (3 mg/kg, 6 h, dose level Low): 15.9 s; Fbg (3 mg/kg, 6 h, dose level Low): 239.6 mg/dL; Hb (3 mg/kg, 6 h, dose level Low): 13.4 g/dL; MCV (3 mg/kg, 6 h, dose level Low): 67.7 fL; Mono (3 mg/kg, 6 h, dose level Low): 12.6%; Neu (3 mg/kg, 6 h, dose level Low): 19.2%; Plat (3 mg/kg, 6 h, dose level Low): 116 x10_4/uL; RBC (3 mg/kg, 6 h, dose level Low): 608.6 x10_4/ul; AST (3 mg/kg, 6 h, dose level Low): 66.8 IU/L; Cl (3 mg/kg, 6 h, dose level Low): 106.2 meq/L; LDH (3 mg/kg, 6 h, dose level Low): 92.4 IU/L; PL (3 mg/kg, 6 h, dose level Low): 149.2 mg/dL; TC (3 mg/kg, 6 h, dose level Low): 80 mg/dL; APTT (3 mg/kg, 9 h, dose level Low): 16.1 s; Fbg (3 mg/kg, 9 h, dose level Low): 236 mg/dL; Hb (3 mg/kg, 9 h, dose level Low): 13 g/dL; MCH (3 mg/kg, 9 h, dose level Low): 21.7 pg; MCV (3 mg/kg, 9 h, dose level Low): 67 fL; Mono (3 mg/kg, 9 h, dose level Low): 7.8%; Neu (3 mg/kg, 9 h, dose level Low): 22.4%; PT (3 mg/kg, 9 h, dose level Low): 12.9 s; Plat (3 mg/kg, 9 h, dose level Low): 126 x10_4/uL; AST (3 mg/kg, 9 h, dose level Low): 59.6 IU/L; Ca (3 mg/kg, 9 h, dose level Low): 10.6 mg/dL; Cl (3 mg/kg, 9 h, dose level Low): 105.1 meq/L; LDH (3 mg/kg, 9 h, dose level Low): 147.2 IU/L; TC (3 mg/kg, 9 h, dose level Low): 77.6 mg/dL; APTT (3 mg/kg, 24 h, dose level Low): 16.2 s; Fbg (3 mg/kg, 24 h, dose level Low): 234.8 mg/dL; Hb (3 mg/kg, 24 h, dose level Low): 13.1 g/dL; MCH (3 mg/kg, 24 h, dose level Low): 21.7 pg; MCV (3 mg/kg, 24 h, dose level Low): 66.8 fL; Mono (3 mg/kg, 24 h, dose level Low): 8.8%; Neu (3 mg/kg, 24 h, dose level Low): 17.8%; Plat (3 mg/kg, 24 h, dose level Low): 117 x10_4/uL; RBC (3 mg/kg, 24 h, dose level Low): 602.6 x10_4/ul; AST (3 mg/kg, 24 h, dose level Low): 64.6 IU/L; Ca (3 mg/kg, 24 h, dose level Low): 11 mg/dL; Cl (3 mg/kg, 24 h, dose level Low): 104.9 meq/L; LDH (3 mg/kg, 24 h, dose level Low): 149.8 IU/L; PL (3 mg/kg, 24 h, dose level Low): 156 mg/dL; TC (3 mg/kg, 24 h, dose level Low): 79.8 mg/dL; APTT [5]: 15.1 s; Fbg [5]: 240.2 mg/dL; Hb [5]: 13.4 g/dL; MCH [5]: 21.7 pg; MCV [5]: 67.6 fL; Mono [5]: 9.8%; Neu [5]: 20.8%; PT [5]: 12.3 s; Plat [5]: 117.2 x10_4/uL; RBC [5]: 615.2 x10_4/ul; LIVER [5]: 11.6 g; AST [5]: 70.6 IU/L; Ca [5]: 12.1 mg/dL; Cl [5]: 103.5 meq/L; LDH [5]: 179.2 IU/L; PL [5]: 165.8 mg/dL; TC [5]: 86.6 mg/dL; APTT [6]: 15.5 s; Fbg [6]: 242.2 mg/dL; Hb [6]: 13.3 g/dL; MCV [6]: 67.2 fL; Mono [6]: 8.2%; Neu [6]: 20.6%; PT [6]: 12.4 s; Plat [6]: 123.6 x10_4/uL; RBC [6]: 606.8 x10_4/ul; AST [6]: 62.4 IU/L; Ca [6]: 11.3 mg/dL; Cl [6]: 107.3 meq/L; LDH [6]: 98.2 IU/L; PL [6]: 151 mg/dL; TC [6]: 88.8 mg/dL; APTT [7]: 16.2 s; Fbg [7]: 230.8 mg/dL; Hb [7]: 13.1 g/dL; MCH [7]: 21.2 pg; MCV [7]: 65.2 fL; Mono [7]: 6.8%; Neu [7]: 17%; PT [7]: 12.9 s; Plat [7]: 117.2 x10_4/uL; RBC [7]: 617.2 x10_4/ul; AST [7]: 60.2 IU/L; Ca [7]: 10.5 mg/dL; Cl [7]: 105.6 meq/L; LDH [7]: 110.8 IU/L; TC [7]: 78 mg/dL; Fbg [8]: 227.4 mg/dL; Hb [8]: 13.4 g/dL; MCH [8]: 21.7 pg; MCV [8]: 66.7 fL; Mono [8]: 8.6%; Neu [8]: 14.2%; Plat [8]: 114.4 x10_4/uL; RBC [8]: 618.2 x10_4/ul; AST [8]: 61.2 IU/L; Ca [8]: 10.8 mg/dL; LDH [8]: 125.2 IU/L; PL [8]: 164 mg/dL; TC [8]: 86.2 mg/dL; APTT (30 mg/kg, 3 h, dose level High): 15.2 s; Fbg (30 mg/kg, 3 h, dose level High): 239.2 mg/dL; Hb (30 mg/kg, 3 h, dose level High): 13 g/dL; MCH (30 mg/kg, 3 h, dose level High): 21.6 pg; MCV (30 mg/kg, 3 h, dose level High): 66.1 fL; Neu (30 mg/kg, 3 h, dose level High): 18.4%; Plat (30 mg/kg, 3 h, dose level High): 110.8 x10_4/uL; RBC (30 mg/kg, 3 h, dose level High): 604 x10_4/ul; AST (30 mg/kg, 3 h, dose level High): 68.4 IU/L; Ca (30 mg/kg, 3 h, dose level High): 11.7 mg/dL; Cl (30 mg/kg, 3 h, dose level High): 105.2 meq/L; LDH (30 mg/kg, 3 h, dose level High): 127.2 IU/L; PL (30 mg/kg, 3 h, dose level High): 166.4 mg/dL; TC (30 mg/kg, 3 h, dose level High): 95.6 mg/dL; APTT (30 mg/kg, 6 h, dose level High): 16.2 s; Fbg (30 mg/kg, 6 h, dose level High): 234.4 mg/dL; Hb (30 mg/kg, 6 h, dose level High): 13.6 g/dL; MCH (30 mg/kg, 6 h, dose level High): 21.7 pg; MCV (30 mg/kg, 6 h, dose level High): 67.4 fL; Mono (30 mg/kg, 6 h, dose level High): 7%; PT (30 mg/kg, 6 h, dose level High): 12.6 s; Plat (30 mg/kg, 6 h, dose level High): 121.2 x10_4/uL; RBC (30 mg/kg, 6 h, dose level High): 624.2 x10_4/ul; AST (30 mg/kg, 6 h, dose level High): 62.8 IU/L; Ca (30 mg/kg, 6 h, dose level High): 10.9 mg/dL; Cl (30 mg/kg, 6 h, dose level High): 108.1 meq/L; LDH (30 mg/kg, 6 h, dose level High): 90.2 IU/L; TC (30 mg/kg, 6 h, dose level High): 78 mg/dL; APTT (30 mg/kg, 9 h, dose level High): 15.7 s; Fbg (30 mg/kg, 9 h, dose level High): 247 mg/dL; MCH (30 mg/kg, 9 h, dose level High): 21.1 pg; MCV (30 mg/kg, 9 h, dose level High): 65.1 fL; Mono (30 mg/kg, 9 h, dose level High): 6.8%; Neu (30 mg/kg, 9 h, dose level High): 14.8%; PT (30 mg/kg, 9 h, dose level High): 12.9 s; Plat (30 mg/kg, 9 h, dose level High): 119 x10_4/uL; RBC (30 mg/kg, 9 h, dose level High): 627.2 x10_4/ul; AST (30 mg/kg, 9 h, dose level High): 64.4 IU/L; Ca (30 mg/kg, 9 h, dose level High): 10.8 mg/dL; Cl (30 mg/kg, 9 h, dose level High): 104.3 meq/L; LDH (30 mg/kg, 9 h, dose level High): 105.2 IU/L; TC (30 mg/kg, 9 h, dose level High): 84.2 mg/dL; APTT [9]: 16 s; Fbg [9]: 232.6 mg/dL; Hb [9]: 13.1 g/dL; MCH [9]: 21.5 pg; MCV [9]: 66.1 fL; Mono [9]: 7.4%; PT [9]: 12.4 s; AST [9]: 58.8 IU/L; BUN [9]: 17.8 mg/dL; Cl [9]: 104.9 meq/L; LDH [9]: 121.6 IU/L; PL [9]: 149.8 mg/dL; TC [9]: 82.6 mg/dL
